Among all 150,000 compounds or so, about 190 (0.13%) were called active. Only results without a clear call are listed here; the source files them as inconclusive. Calls come from the whole dose curve; as a rule, active = well fitted inhibition curve with a large enough effect; inconclusive = small, poorly fitted or top-dose-only effect; inactive = flat fitted curve, though single readings scatter.
These molecules were tested against Polyunsaturated fatty acid lipoxygenase ALOX12 (Homo sapiens) (UniProt P18054) (assay: qHTS Assay for Inhibitors of 12-hLO (12-human lipoxygenase)). Details: purified 12-hLO, xylenol orange hydroperoxide absorbance.
From the text: Assay Provider: Holman, T.R., University of California, Santa Cruz Screening Center PI: Austin, C.P. Screening Center: NIH Chemical Genomics Center [NCGC] Human lipoxygenase 12hLO is a member of the closely related lipoxygenase family of enzymes which catalyze the site-specific oxidation of arachidonic acid to various hormone precursor molecules and as such is a candidate for drug development in a variety of disease areas, such as cancer and inflammation. Inhibition of 12hLO activity was screened by utilizing arachidonic acid as a substrate. The extent of hydroperoxide product formation was measured by a secondary chromogenic reaction in which xylenol orange (XO, Sigma-Aldrich, cat. number 39,818-7) reacts with the ferric ions produced from the reaction between the hydroperoxide and ferrous ions. The Fe(III)-XO complex is characterized with red-shifted absorbance at 560 nm. A purified preparation of human 12hLO was supplied by Professor Ted Holman, University of California, Santa Cruz.
Assay Protocol: Buffer: 25 mM Hepes pH 7.0, 0.01% Triton X-100. Reagents/Controls: Buffer in columns 3 and 4 as negative control (no enzyme). […] The absorbance at 405 and 573 nm were measured using ViewLux (Perkin-Elmer) High-throughput CCD imager and absorbance protocol settings. The 573-to-405 absorbance ratio was used to compute reaction progress.
Note: nearly all actives have a fitted effect of over 55% in size.
Potency is the fitted concentration of half-maximal effect.

The chains behind the UniProt entries cited, without tags or fusion partners. Where a name states a change or a piece, a line headed by the entry shows the natural chain unless it says otherwise.
UniProt P18054: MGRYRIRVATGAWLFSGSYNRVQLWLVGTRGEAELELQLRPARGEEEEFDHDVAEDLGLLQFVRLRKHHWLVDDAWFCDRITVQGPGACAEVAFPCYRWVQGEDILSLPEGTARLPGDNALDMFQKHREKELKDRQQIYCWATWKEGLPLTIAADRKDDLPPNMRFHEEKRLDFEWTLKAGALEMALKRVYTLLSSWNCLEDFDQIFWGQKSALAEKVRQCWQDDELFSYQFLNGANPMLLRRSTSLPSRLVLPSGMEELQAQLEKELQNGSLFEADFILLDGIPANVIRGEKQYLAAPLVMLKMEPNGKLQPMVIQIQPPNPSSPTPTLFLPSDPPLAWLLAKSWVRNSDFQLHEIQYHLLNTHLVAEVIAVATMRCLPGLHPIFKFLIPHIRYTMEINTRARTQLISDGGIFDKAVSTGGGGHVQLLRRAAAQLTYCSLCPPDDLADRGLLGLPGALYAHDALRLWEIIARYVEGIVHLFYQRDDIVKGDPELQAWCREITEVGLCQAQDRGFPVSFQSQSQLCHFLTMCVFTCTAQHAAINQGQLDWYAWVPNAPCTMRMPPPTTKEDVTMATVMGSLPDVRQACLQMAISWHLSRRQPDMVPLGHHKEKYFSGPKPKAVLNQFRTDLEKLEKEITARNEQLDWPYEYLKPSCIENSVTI

| SMILES | Potency |
| --- | --- |
| O=P(Nc1nccs1)(c1ccccc1)c1nc2ccccc2s1 (stereo unspecified) | inconclusive: 20 µM |

— PubChem BioAssay AID1452 (National Center for Advancing Translational Sciences (NCATS), 2008)
